The chains behind the UniProt entries cited, without tags or fusion partners.
UniProt P03372, whole entry: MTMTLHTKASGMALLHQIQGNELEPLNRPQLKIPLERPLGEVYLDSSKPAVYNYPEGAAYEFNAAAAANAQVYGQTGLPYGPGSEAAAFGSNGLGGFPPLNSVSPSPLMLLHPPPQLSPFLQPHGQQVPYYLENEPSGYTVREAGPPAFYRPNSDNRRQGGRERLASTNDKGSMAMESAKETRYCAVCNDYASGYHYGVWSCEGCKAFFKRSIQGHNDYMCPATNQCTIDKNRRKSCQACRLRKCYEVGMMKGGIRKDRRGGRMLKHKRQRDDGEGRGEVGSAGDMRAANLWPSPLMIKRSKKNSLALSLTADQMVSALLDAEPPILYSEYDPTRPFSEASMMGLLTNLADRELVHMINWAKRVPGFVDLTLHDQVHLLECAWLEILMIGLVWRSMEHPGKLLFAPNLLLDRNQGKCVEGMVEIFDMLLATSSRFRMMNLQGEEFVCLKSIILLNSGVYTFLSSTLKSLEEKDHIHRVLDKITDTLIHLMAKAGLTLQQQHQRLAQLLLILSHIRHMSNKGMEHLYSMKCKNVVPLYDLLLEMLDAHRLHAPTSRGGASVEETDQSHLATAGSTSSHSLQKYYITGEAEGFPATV
UniProt Q92731, whole entry: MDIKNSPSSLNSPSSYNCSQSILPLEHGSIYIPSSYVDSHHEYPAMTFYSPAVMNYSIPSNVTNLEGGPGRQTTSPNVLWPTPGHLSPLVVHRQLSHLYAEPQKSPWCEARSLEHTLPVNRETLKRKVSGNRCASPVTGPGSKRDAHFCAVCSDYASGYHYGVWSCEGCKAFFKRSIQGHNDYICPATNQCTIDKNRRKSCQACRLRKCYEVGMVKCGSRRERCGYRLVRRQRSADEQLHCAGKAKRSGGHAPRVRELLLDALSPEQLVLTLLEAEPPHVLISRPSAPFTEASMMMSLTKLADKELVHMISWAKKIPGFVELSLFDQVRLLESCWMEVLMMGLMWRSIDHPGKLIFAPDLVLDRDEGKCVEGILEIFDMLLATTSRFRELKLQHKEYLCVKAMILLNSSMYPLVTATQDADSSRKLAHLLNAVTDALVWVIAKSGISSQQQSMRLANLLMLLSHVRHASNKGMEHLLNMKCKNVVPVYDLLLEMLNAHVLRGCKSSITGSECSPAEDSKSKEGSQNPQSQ
UniProt Q99527, whole entry: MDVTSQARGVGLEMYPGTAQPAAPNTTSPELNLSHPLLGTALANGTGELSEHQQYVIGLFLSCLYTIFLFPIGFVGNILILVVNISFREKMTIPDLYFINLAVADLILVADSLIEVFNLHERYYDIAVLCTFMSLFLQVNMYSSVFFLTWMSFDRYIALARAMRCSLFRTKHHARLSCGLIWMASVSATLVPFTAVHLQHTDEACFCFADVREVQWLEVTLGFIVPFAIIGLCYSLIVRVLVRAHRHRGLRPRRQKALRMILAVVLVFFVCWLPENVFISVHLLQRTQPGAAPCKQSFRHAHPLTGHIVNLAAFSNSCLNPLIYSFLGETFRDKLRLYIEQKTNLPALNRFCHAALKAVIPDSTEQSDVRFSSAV

According to US11634378B2, “Compounds and methods targeting GPER in calcium disorders” (Saint Louis University, priority 2017, dated 2023):

Legend:
[1] = biological target: ERα (Homo sapiens, UniProt P03372); assay: ERα PolarScreen fluorescence polarization competitor assay; details: any tested concentration
[2] = biological target: ERβ (Homo sapiens, UniProt Q92731); assay: ERβ PolarScreen fluorescence polarization competitor assay; details: 10 μM
[3] = cited from earlier work
[4] = biological target: GPER (Homo sapiens, UniProt Q99527); assay: cAMP HTRF antagonism assay (G-1 induced inhibition of adenylate cyclase) in HL-60 cells

ERα binding [1]	ERβ binding [2]	Antagonism of G-1 induced inhibition of adenylate cyclase ([4]; 100 nM)	Structure (SMILES)	solubility [3]	Antagonism of G-1 induced inhibition of adenylate cyclase ([4]; 1 μM exposure)
no appreciable binding	exhibited binding		CC(=O)c1ccc2c(c1)C1C=CCC1C(c1cc3c(cc1Br)OCO3)N2 (centres unmarked)		
			Brc1cc2c(cc1C1Nc3ccccc3C3C=CCC31)OCO2 (centres unmarked)	limited solubility	
no appreciable binding	exhibited binding	also observed, less so	CC(C)c1ccc2c(c1)C1C=CCC1C(c1cc3c(cc1Br)OCO3)N2 (centres unmarked)	limited solubility	caused a decrease in adenylate cyclase inhibition
